Laboratory results reported in patent US20160116448A1, “pH-MODULATED QUENCHERS OF FLUORESCENCE” (published 2016).

Experiments:
[1] = pKa of compounds of formula (I); details: compound of formula (I)
[2] = Light absorption of the anions derived from the compounds (maximal absorption wavelength, molar extinction coefficient); details: anion derived from the compound
[3] = Stability to reduction by dithiothreitol (DTT), visible spectrum
[4] = after treatment with dithiothreitol, 1 cm cuvette
[5] = methanol / 1×PCR buffer, before dithiothreitol, 1 cm cuvette
[6] = with dithiothreitol, after 95 °C water bath for 5 minutes, cooled to room temperature

| SMILES | pKa [1] | ε (molar extinction coefficient) [2] | λ max [2] [nM] | Absorbance [3, 4] | observed λ max [3, 4] [nM] | Absorbance [3, 5] | observed λ max [3, 5] [nM] | visible spectrum after heating with DTT ([3]; with dithiothreitol, after 95 °C water bath for 5 minutes) | Absorbance [3, 6] | λ max [3, 6] [nM] |
| --- | --- | --- | --- | --- | --- | --- | --- | --- | --- | --- |
| CCN(CC)C(=O)C(c1ccc([N+](=O)[O-])cc1[N+](=O)[O-])c1ncc([N+](=O)[O-])cc1[N+](=O)[O-] (stereo not drawn) | 5.5 | 22,000 cm^−1 M^−1 | 616 |  |  |  |  |  |  |  |
| CCCCCCOC(=O)C(c1ccc([N+](=O)[O-])cc1[N+](=O)[O-])c1ccc([N+](=O)[O-])cc1[N+](=O)[O-] | 7.8 |  | 652 | 3.193 | 655 | 3.205 | 655 | essentially unchanged | 3.044 | 655 |
| CC(C)OC(=O)C(c1ccc([N+](=O)[O-])cc1[N+](=O)[O-])c1ncc([N+](=O)[O-])cc1[N+](=O)[O-] (stereo not drawn) | 4.3 | 29,950 cm^−1 M^−1 | 592 |  |  |  |  |  |  |  |
